Structures are written as SMILES.

In ChEMBL document CHEMBL4376854, “Investigation of the Adrenergic and Opioid Binding Affinities, Metabolic Stability, Plasma Protein Binding Properties, and Functional Effects of Selected Indole-Based Kratom Alkaloids” (J Med Chem, 2020) one finds ED50 and Activity data, which are given here for 1 compound.

The subject of series [1] is Rattus norvegicus. Description: Antinociceptive activity in Sprague-Dawley rat dosed intravenously using cumulative dosing every 5 mins until rat maxed-out on hot plate by hot plate test.
Series [2] in a line: Toxicity in Sprague-Dawley rat assessed as induction of hypothermia at 0.0032 to 10 mg/kg, iv. The following applies: in vivo.

In the case of `CN(C(=O)Cc1ccccc1)[C@H]1CC[C@@]2(CCCO2)C[C@@H]1N1CCCC1`, in series [1], it took a dose of 1.81 mg/kg to reach the 50% effect level (ED50). Further, in series [2], the Activity entry is listed as “Toxic”.
